Tested on: Human Brain Microvascular Endothelial Cells (HBMEC)
Test: human Aβ1-42 injury in HBMEC, total length of capillary network
Assay type: cell-based
Conditions: 1 hr pre-treatment at 10 nM, FIG. 2A

In the case of VEGF, the “capillary network compared to amyloid intoxication” value is reported as “+78%”.
